Results published in publication PMC9525273.

Key:
NF54^CTL parasites = assay: P. falciparum proliferation assay (72 h, flow cytometry, SYBR Green I/MitoTracker); assay type: cell-based; settings: Plasmodium falciparum, NF54, NF54CTL parasites; individual experiments
Method: For the NF54-based lines and Dd2-B2-PfATP4^G358S and its parent, assays were initiated with cultures containing predominantly ring-stage parasites with a parasitaemia of 0.3% and a haematocrit of 1%. All assays using NF54 were performed in culture media containing 10% O + human serum. The duration of the assays was 72 h and the concentration of DMSO was <0.5% (v/v). Serial dilutions of the test compounds were performed using a Tecan D300e digital dispenser, with parasite cultures added manually. Parasite survival was assessed by flow cytometry on an Intellicyt iQue3 (Essen Bioscience), with 1× SYBR Green I (Invitrogen) and 200 nM MitoTracker Deep Red FM (Invitrogen) used to stain the nucleus and the mitochondria in live parasites, respectively. The gating strategy used to quantify parasite survival, performed using FlowJo version 10 (FlowJo LLC.), is illustrated in Supplementary Fig. 9. IC50 and IC90 values were calculated by linear interpolation of the dose-response data.

[1] = biological target: T1, PfATP4^WT (membranes from Dd2-Polδ parasites) (Plasmodium falciparum, UniProt A0A143ZZK9); assay: Membrane ATPase assay, ATP4-associated (Na+-dependent) ATPase activity; assay type: biochemical; settings: cell-free assays, against both PfATP4WT and TgATP4WT
T1 sequence (A0A143ZZK9 1-1264): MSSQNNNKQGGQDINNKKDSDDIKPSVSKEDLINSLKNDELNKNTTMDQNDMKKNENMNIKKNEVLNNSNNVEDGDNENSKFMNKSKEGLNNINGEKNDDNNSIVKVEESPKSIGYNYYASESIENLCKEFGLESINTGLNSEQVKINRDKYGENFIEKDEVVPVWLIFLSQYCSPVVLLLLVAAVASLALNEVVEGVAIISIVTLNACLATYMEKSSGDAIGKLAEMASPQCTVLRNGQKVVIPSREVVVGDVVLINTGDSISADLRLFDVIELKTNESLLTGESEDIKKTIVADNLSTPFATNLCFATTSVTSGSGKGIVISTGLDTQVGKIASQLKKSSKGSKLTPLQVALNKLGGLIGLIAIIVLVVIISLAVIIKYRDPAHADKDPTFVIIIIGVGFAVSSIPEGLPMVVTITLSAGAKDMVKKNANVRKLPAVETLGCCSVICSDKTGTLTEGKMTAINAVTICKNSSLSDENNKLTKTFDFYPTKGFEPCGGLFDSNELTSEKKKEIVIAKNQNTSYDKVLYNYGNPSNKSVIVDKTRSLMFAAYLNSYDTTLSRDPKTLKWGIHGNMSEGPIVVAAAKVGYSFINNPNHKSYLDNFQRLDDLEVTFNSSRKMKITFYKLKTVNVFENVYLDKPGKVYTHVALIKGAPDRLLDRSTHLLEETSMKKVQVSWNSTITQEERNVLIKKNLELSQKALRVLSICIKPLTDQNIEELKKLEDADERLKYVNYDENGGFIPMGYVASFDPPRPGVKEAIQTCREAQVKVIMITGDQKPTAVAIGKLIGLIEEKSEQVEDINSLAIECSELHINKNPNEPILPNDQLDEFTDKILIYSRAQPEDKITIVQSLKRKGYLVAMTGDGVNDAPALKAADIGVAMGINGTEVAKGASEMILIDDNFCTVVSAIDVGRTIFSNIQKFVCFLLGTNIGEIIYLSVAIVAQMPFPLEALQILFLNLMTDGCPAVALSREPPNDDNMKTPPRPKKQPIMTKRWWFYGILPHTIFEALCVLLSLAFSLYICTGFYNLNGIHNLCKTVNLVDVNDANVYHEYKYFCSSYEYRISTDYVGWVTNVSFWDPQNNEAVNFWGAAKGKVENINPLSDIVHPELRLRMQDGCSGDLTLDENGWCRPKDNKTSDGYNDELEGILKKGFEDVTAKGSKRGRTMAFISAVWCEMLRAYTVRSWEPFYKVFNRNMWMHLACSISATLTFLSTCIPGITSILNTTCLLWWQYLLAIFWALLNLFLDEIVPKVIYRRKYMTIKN
Method: (§1) Membranes from isolated P. falciparum or extracellular T. gondii parasites were prepared by lysing parasites in ice-cold deionized water containing a 1:500 dilution of Protease Inhibitor Cocktail Set III (Merck Millipore), then washing the membrane preparation three times in ice-cold deionized water (with protease inhibitors present for the first two washes)[15]. Protein concentrations in the membrane preparations were measured using a Bradford assay. The PiColorLock Gold Phosphate Detection System (Innova Biosciences) was used to measure the production of Pi from hydrolysis of ATP[15]. Membrane preparations were diluted in either a high Na^+ solution (yielding final conditions in the reactions of 150 mM NaCl, 20 mM KCl, 2 mM MgCl2, 50 mM Tris, pH 7.2) or a Na^+-free solution (yielding final conditions of 150 mM choline chloride, 20 mM KCl, 2 mM MgCl2, 50 mM Tris, pH 7.2) to achieve a total protein concentration of 50 μg/mL. Cipargamin, (+)-SJ733, or DMSO (solvent control) were added to give the concentrations stated in the relevant Figure legends. The reactions were performed at 37 °C, and were initiated by the addition of 1 mM ATP (Na2ATP۰3H2O; MP Biomedicals) and terminated 10 min later by adding 100 μL of reaction mixture (in duplicate) to 25 μL “Gold mix” in a 96-well plate. “Stabiliser” was added 3 min later, and the plates incubated at room temperature in the dark for 60 min before measuring absorbance at 635 nm. Background values (averaged from wells containing all components, but to which ATP was not added until after the membrane was exposed to Gold mix) were subtracted from the data. For each treatment, the ATPase activity associated with the (Na^+-dependent) PfATP4 and TgATP4 proteins was calculated by subtracting data obtained in the low Na^+ condition (containing only the 2 mM Na^+ introduced on addition of 1 mM Na2ATP) from that obtained in the high Na^+ condition.

[2] = biological target: T2, TgATP4^WT (membranes from T. gondii tachyzoites) (Toxoplasma gondii, UniProt B9QMJ0); assay: as above; assay type: biochemical; settings: TgATP4WT vs PfATP4WT; 10 min
T2 sequence (B9QMJ0 1-1338): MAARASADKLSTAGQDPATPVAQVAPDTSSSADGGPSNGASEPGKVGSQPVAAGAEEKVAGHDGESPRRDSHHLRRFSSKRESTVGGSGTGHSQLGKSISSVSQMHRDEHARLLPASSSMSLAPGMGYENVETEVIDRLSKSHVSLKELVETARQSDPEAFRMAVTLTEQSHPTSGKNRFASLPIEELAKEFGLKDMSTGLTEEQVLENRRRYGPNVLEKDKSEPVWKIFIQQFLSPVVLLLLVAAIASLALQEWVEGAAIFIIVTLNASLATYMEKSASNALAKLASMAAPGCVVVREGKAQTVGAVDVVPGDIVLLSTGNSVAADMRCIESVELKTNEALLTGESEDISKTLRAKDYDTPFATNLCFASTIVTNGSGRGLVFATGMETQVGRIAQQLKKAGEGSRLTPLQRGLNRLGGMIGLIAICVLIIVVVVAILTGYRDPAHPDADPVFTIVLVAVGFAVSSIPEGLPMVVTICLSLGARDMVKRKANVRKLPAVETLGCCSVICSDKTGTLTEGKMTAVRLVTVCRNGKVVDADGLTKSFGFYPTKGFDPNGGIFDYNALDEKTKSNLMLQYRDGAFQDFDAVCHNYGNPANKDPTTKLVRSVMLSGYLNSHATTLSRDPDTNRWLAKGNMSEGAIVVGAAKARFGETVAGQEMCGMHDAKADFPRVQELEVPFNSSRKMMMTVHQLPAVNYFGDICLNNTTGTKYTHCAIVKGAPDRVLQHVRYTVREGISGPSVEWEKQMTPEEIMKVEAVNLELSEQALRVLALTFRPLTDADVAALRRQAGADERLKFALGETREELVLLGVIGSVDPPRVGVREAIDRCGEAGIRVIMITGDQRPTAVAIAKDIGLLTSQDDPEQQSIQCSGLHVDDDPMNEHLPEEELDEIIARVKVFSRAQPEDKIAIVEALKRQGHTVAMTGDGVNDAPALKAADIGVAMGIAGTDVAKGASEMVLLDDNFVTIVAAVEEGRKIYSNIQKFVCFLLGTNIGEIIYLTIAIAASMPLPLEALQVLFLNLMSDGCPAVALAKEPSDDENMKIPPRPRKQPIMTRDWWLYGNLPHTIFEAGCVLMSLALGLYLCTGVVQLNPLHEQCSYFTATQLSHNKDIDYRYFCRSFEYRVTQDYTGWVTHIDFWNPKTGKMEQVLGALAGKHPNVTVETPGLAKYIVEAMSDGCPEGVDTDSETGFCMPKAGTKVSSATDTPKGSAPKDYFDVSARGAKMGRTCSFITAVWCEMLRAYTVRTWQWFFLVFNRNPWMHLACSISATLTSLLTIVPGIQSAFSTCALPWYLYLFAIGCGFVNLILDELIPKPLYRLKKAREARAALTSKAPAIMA
Method: as §1

SMILES: N#Cc1cc(NC(=O)[C@H]2c3ccccc3C(=O)N(CC(F)(F)F)[C@@H]2c2cccnc2)ccc1F [(+)-SJ733]
- IC90 (NF54^CTL parasites): 159 nM
- fold less potent than cipargamin [1]: ~ 2 fold
- fold less sensitive to inhibition than PfATP4WT-associated ATPase activity [2]: about 3 fold

SMILES: C[C@H]1Cc2c([nH]c3cc(Cl)c(F)cc23)[C@@]2(N1)C(=O)Nc1ccc(Cl)cc12 [Cipargamin]
- fold less sensitive to inhibition than PfATP4WT-associated ATPase activity [2]: about 3 fold
